Earlier results, collected in article PMC5641599 (Molecular Metabolism, 2017).
Read-outs that look alike come from different tables or passages of the source.

Tested on: MC4R variants
Settings: cited from earlier work

NDP-MSH
cAMP Emax - Ligand no.3 (% of WT) (MC4R A154D, ref Tao YX, J Clin Endocrinol Metab, 2005): 126.0 % of WT
cAMP Emax - Ligand no.3 (% of WT) (MC4R A175T, ERK1/2 pathway assay, ref Alfieri A, Gene, 2010): 40.0 % of WT
cAMP Emax - Ligand no.3 (% of WT) (MC4R A219V, ref Fan ZC, J Cell Mol Med, 2009): 56.0 % of WT
cAMP Emax - Ligand no.3 (% of WT) (MC4R A244V, COS-7 cell line, ref Reinehr T, Obesity, 2009): 118.6 % of WT
cAMP Emax - Ligand no.3 (% of WT) (MC4R C172R, ref Hohenadel MG, Int J Obes, 2014): 32.9 % of WT
cAMP Emax - Ligand no.3 (% of WT) (MC4R C271R, COS-7 cell line, ref Tarnow P, J Biol Chem, 2003): 71.5 % of WT
cAMP Emax - Ligand no.3 (% of WT) (MC4R F202L, COS-7 cell line, ref Hughes DA, Hum Genet, 2009): 83.0 % of WT
cAMP Emax - Ligand no.3 (% of WT) (MC4R F202L, ref Hohenadel MG, Int J Obes, 2014): 126.0 % of WT
cAMP Emax - Ligand no.3 (% of WT) (MC4R F202L, ref Tao YX, J Clin Endocrinol Metab, 2005): 89.0 % of WT
cAMP Emax - Ligand no.3 (% of WT) (MC4R F261S, ref Fan ZC, J Cell Mol Med, 2009): 49.0 % of WT
cAMP Emax - Ligand no.3 (% of WT) (MC4R G181D, ref Xiang Z, Biochemistry, 2010): 0.0 % of WT
cAMP Emax - Ligand no.3 (% of WT) (MC4R H158R, COS-7 cell line, ref Hinney A, J Clin Endocrinol Metab, 2006): 135.0 % of WT
cAMP Emax - Ligand no.3 (% of WT) (MC4R I125K, ref Xiang Z, Biochemistry, 2006): 0.0 % of WT
cAMP Emax - Ligand no.3 (% of WT) (MC4R I137T, ref Gu W, Diabetes, 1999): 65.0 % of WT
cAMP Emax - Ligand no.3 (% of WT) (MC4R I170V, COS-7 cell line, ref Hughes DA, Hum Genet, 2009): 98.0 % of WT
cAMP Emax - Ligand no.3 (% of WT) (MC4R I170V, ref Tao YX, Endocrinology, 2003): 147.0 % of WT
cAMP Emax - Ligand no.3 (% of WT) (MC4R I269N, ref Hohenadel MG, Int J Obes, 2014): 131.1 % of WT
cAMP Emax - Ligand no.3 (% of WT) (MC4R M200V, COS-7 cell line, ref Hinney A, J Clin Endocrinol Metab, 2006): 78.0 % of WT
cAMP Emax - Ligand no.3 (% of WT) (MC4R M200V, ref Tao YX, J Clin Endocrinol Metab, 2005): 104.0 % of WT
cAMP Emax - Ligand no.3 (% of WT) (MC4R M208V, ref Hohenadel MG, Int J Obes, 2014): 113.9 % of WT
cAMP Emax - Ligand no.3 (% of WT) (MC4R M218T, ref Rong R, Clin Endocrinol, 2006): 93.0 % of WT
cAMP Emax - Ligand no.3 (% of WT) (MC4R N240S, ref Tao YX, J Clin Endocrinol Metab, 2005): 72.0 % of WT
cAMP Emax - Ligand no.3 (% of WT) (MC4R P230L, ref Fan ZC, J Cell Mol Med, 2009): 122.0 % of WT
cAMP Emax - Ligand no.3 (% of WT) (MC4R Q156R, COS-7 cell line, ref Hinney A, J Clin Endocrinol Metab, 2006): 79.0 % of WT
cAMP Emax - Ligand no.3 (% of WT) (MC4R R165G, ref Hohenadel MG, Int J Obes, 2014): 135.5 % of WT
cAMP Emax - Ligand no.3 (% of WT) (MC4R R165Q, ref Hohenadel MG, Int J Obes, 2014): 142.7 % of WT
cAMP Emax - Ligand no.3 (% of WT) (MC4R R236H, COS-7 cell line, ref Hinney A, J Clin Endocrinol Metab, 2006): 105.0 % of WT
cAMP Emax - Ligand no.3 (% of WT) (MC4R S136F, COS-7 cell line, ref Tarnow P, Obes Facts, 2008): 14.0 % of WT
cAMP Emax - Ligand no.3 (% of WT) (MC4R S136F, ref Fan ZC, J Cell Mol Med, 2009): 11.0 % of WT
cAMP Emax - Ligand no.3 (% of WT) (MC4R S191T, COS-7 cell line, ref Hughes DA, Hum Genet, 2009): 99.0 % of WT
cAMP Emax - Ligand no.3 (% of WT) (MC4R T162R, COS-7 cell line, ref Ochoa MC, Clin Endocrinol, 2007): 104.0 % of WT
cAMP Emax - Ligand no.3 (% of WT) (MC4R V166I, COS-7 cell line, ref Hinney A, J Clin Endocrinol Metab, 2006): 122.0 % of WT
cAMP Emax - Ligand no.3 (% of WT) (MC4R V166I, COS-7 cell line, ref Hughes DA, Hum Genet, 2009): 122.0 % of WT
cAMP Emax - Ligand no.3 (% of WT) (MC4R W174C, ERK1/2 pathway assay, ref Alfieri A, Gene, 2010): 0.0 % of WT
cAMP Emax - Ligand no.3 (% of WT) (MC4R W174C, ref Fan ZC, J Cell Mol Med, 2009): 31.0 % of WT
cAMP Emax - Ligand no.3 (% of WT) (MC4R W174C, ref Xiang Z, Biochemistry, 2010): 0.0 % of WT
cAMP Emax - Ligand no.3 (% of WT) (MC4R Y157S, ref Tao YX, Endocrinology, 2003): 25.0 % of WT
